Here are results for one molecule from patent US20250128113A1, “Decontamination Composition and Application Thereof” (published 2025).

Each structure is given as a SMILES string.

The test system of one series is Zebrafish embryos. The series is described as follows: Zebrafish embryo survival test of HD and its CPO degradation products. Conditions: embryos exposed to 0.5% sodium hypochlorite.
The next series deals with Zebrafish larvae. The series is described as follows: Zebrafish larvae test of degradation of L and Agent Yellow (HD+L). Conditions: in the presence of 0.5% sodium hypochlorite.

As for `OCl`, the damage to embryos result in the series on Zebrafish embryos was “immediately damaged”. The “effect on zebrafish larvae” value in the series on Zebrafish larvae is “immediately damaged, died within a few minutes, and decomposed after 5 minutes”.
